Measured values reported in PMC12102759 (Protein Science : A Publication of the Protein Society, 2025).

System: AP2M1 MU
Format: binding, human

Row | Substance | PSSM value of the substitution (DMS by phage display) | PSSM value of the substitution, averaged over the two overlapping peptides
1 | QVVSDIDYVPLKSATA Y8Y | 1 | –
2 | VSDIDYVPLKSATAIT I4E (VSDEDYVPLKSATAIT) | 0 | –
3 | VSDIDYVPLKSATAIT D5V (VSDIVYVPLKSATAIT) | 0.002387 | –
4 | VSDIDYVPLKSATAIT L9G (VSDIDYVPGKSATAIT) | 0 | –
5 | VSDIDYVPLKSATA(averaged) K10H (VSDIDYVPLHSATA) | – | 0.04501
6 | VSDIDYVPLKSATAIT I4R (VSDRDYVPLKSATAIT) | 0 | –
7 | VSDIDYVPLKSATAIT I15E (VSDIDYVPLKSATAET) | 0.003676 | –
8 | VSDIDYVPLKSATA(averaged) D3M (VSMIDYVPLKSATA) | – | 0.004661
9 | VSDIDYVPLKSATAIT D3T (VSTIDYVPLKSATAIT) | 0.00716 | –
10 | QVVSDIDYVPLKSATA S4W (QVVWDIDYVPLKSATA) | 0 | –
11 | QVVSDIDYVPLKSATA D7H (QVVSDIHYVPLKSATA) | 0.01743 | –
12 | VSDIDYVPLKSATA(averaged) T13D (VSDIDYVPLKSADA) | – | 0.00856
13 | QVVSDIDYVPLKSATA S4V (QVVVDIDYVPLKSATA) | 0 | –
14 | VSDIDYVPLKSATAIT V7R (VSDIDYRPLKSATAIT) | 0 | –
15 | VSDIDYVPLKSATA(averaged) D5A (VSDIAYVPLKSATA) | – | 0.0009534
16 | VSDIDYVPLKSATAIT P8K (VSDIDYVKLKSATAIT) | 0.001823 | –
17 | VSDIDYVPLKSATAIT V1E (ESDIDYVPLKSATAIT) | 0.01239 | –
18 | QVVSDIDYVPLKSATA L11D (QVVSDIDYVPDKSATA) | 0 | –
19 | QVVSDIDYVPLKSATA P10Y (QVVSDIDYVYLKSATA) | 0 | –
20 | QVVSDIDYVPLKSATA D7M (QVVSDIMYVPLKSATA) | 0.0006322 | –
21 | VSDIDYVPLKSATAIT S2T (VTDIDYVPLKSATAIT) | 0.005684 | –
22 | QVVSDIDYVPLKSATA K12P (QVVSDIDYVPLPSATA) | 0.001923 | –
23 | QVVSDIDYVPLKSATA V2H (QHVSDIDYVPLKSATA) | 0.2203 | –

Row | Substance | PSSM value of the substitution (DMS by phage display) | PSSM value of the substitution, averaged over the two overlapping peptides
24 | VSDIDYVPLKSATAIT D3M (VSMIDYVPLKSATAIT) | 0.009321 | –
25 | VSDIDYVPLKSATAIT A14R (VSDIDYVPLKSATRIT) | 0.2616 | –
26 | VSDIDYVPLKSATAIT A12T (VSDIDYVPLKSTTAIT) | 0.01191 | –
27 | QVVSDIDYVPLKSATA S4K (QVVKDIDYVPLKSATA) | 0 | –
28 | VSDIDYVPLKSATA(averaged) D5Q (VSDIQYVPLKSATA) | – | 0.002892
29 | VSDIDYVPLKSATAIT S2E (VEDIDYVPLKSATAIT) | 0 | –
30 | VSDIDYVPLKSATA(averaged) L9E (VSDIDYVPEKSATA) | – | 0
31 | VSDIDYVPLKSATA(averaged) P8L (VSDIDYVLLKSATA) | – | 0.135
32 | VSDIDYVPLKSATAIT D3V (VSVIDYVPLKSATAIT) | 0 | –
33 | VSDIDYVPLKSATA(averaged) S11S | – | 0.002623
34 | VSDIDYVPLKSATAIT K10W (VSDIDYVPLWSATAIT) | 0 | –
35 | QVVSDIDYVPLKSATA P10V (QVVSDIDYVVLKSATA) | 0 | –
36 | VSDIDYVPLKSATA(averaged) L9I (VSDIDYVPIKSATA) | – | 0.2123
37 | VSDIDYVPLKSATAIT A14V (VSDIDYVPLKSATVIT) | 0.002047 | –
38 | QVVSDIDYVPLKSATA V2M (QMVSDIDYVPLKSATA) | 0.002348 | –
39 | VSDIDYVPLKSATA(averaged) S2F (VFDIDYVPLKSATA) | – | 0.03202
40 | VSDIDYVPLKSATAIT V1Y (YSDIDYVPLKSATAIT) | 0 | –
41 | QVVSDIDYVPLKSATA T15N (QVVSDIDYVPLKSANA) | 0 | –
42 | VSDIDYVPLKSATA(averaged) K10M (VSDIDYVPLMSATA) | – | 0.0713
43 | VSDIDYVPLKSATAIT D5R (VSDIRYVPLKSATAIT) | 0 | –
44 | QVVSDIDYVPLKSATA K12W (QVVSDIDYVPLWSATA) | 0.000213 | –
45 | VSDIDYVPLKSATA(averaged) T13F (VSDIDYVPLKSAFA) | – | 0.1122
46 | VSDIDYVPLKSATAIT I15P (VSDIDYVPLKSATAPT) | 0 | –

Row | Substance | PSSM value of the substitution (DMS by phage display) | PSSM value of the substitution, averaged over the two overlapping peptides
47 | VSDIDYVPLKSATAIT P8T (VSDIDYVTLKSATAIT) | 0 | –
48 | QVVSDIDYVPLKSATA T15S (QVVSDIDYVPLKSASA) | 0.04411 | –
49 | VSDIDYVPLKSATA(averaged) V7H (VSDIDYHPLKSATA) | – | 0.06898
50 | VSDIDYVPLKSATA(averaged) T13W (VSDIDYVPLKSAWA) | – | 0.02159
51 | QVVSDIDYVPLKSATA Y8H (QVVSDIDHVPLKSATA) | 0 | –
52 | QVVSDIDYVPLKSATA T15D (QVVSDIDYVPLKSADA) | 0.002432 | –
53 | VSDIDYVPLKSATA(averaged) I4P (VSDPDYVPLKSATA) | – | 2.437e-5
54 | VSDIDYVPLKSATAIT D5Y (VSDIYYVPLKSATAIT) | 0.1244 | –
55 | VSDIDYVPLKSATAIT V7K (VSDIDYKPLKSATAIT) | 0.02629 | –
56 | VSDIDYVPLKSATAIT Y6E (VSDIDEVPLKSATAIT) | 0 | –
57 | VSDIDYVPLKSATA(averaged) T13V (VSDIDYVPLKSAVA) | – | 0.01576
58 | VSDIDYVPLKSATA(averaged) S11Q (VSDIDYVPLKQATA) | – | 0.4502
59 | QVVSDIDYVPLKSATA D5S (QVVSSIDYVPLKSATA) | 0 | –
60 | VSDIDYVPLKSATAIT S2R (VRDIDYVPLKSATAIT) | 0.8051 | –
61 | VSDIDYVPLKSATA(averaged) A14P (VSDIDYVPLKSATP) | – | 0.001907
62 | VSDIDYVPLKSATA(averaged) L9F (VSDIDYVPFKSATA) | – | 0.01344
63 | VSDIDYVPLKSATAIT I4K (VSDKDYVPLKSATAIT) | 0 | –
64 | VSDIDYVPLKSATAIT V1N (NSDIDYVPLKSATAIT) | 0 | –
65 | VSDIDYVPLKSATAIT A14F (VSDIDYVPLKSATFIT) | 0 | –
66 | QVVSDIDYVPLKSATA V3F (QVFSDIDYVPLKSATA) | 0.001289 | –
67 | VSDIDYVPLKSATAIT T13W (VSDIDYVPLKSAWAIT) | 0 | –
68 | VSDIDYVPLKSATAIT S2W (VWDIDYVPLKSATAIT) | 0.001291 | –
69 | VSDIDYVPLKSATAIT L9E (VSDIDYVPEKSATAIT) | 0 | –

Row | Substance | PSSM value of the substitution (DMS by phage display) | PSSM value of the substitution, averaged over the two overlapping peptides
70 | QVVSDIDYVPLKSATA D5L (QVVSLIDYVPLKSATA) | 0 | –
71 | QVVSDIDYVPLKSATA A16M (QVVSDIDYVPLKSATM) | 0 | –
72 | VSDIDYVPLKSATA(averaged) T13Q (VSDIDYVPLKSAQA) | – | 0.2617
73 | QVVSDIDYVPLKSATA V9E (QVVSDIDYEPLKSATA) | 0.5702 | –
74 | QVVSDIDYVPLKSATA L11F (QVVSDIDYVPFKSATA) | 0.02689 | –
75 | VSDIDYVPLKSATA(averaged) D5R (VSDIRYVPLKSATA) | – | 8.698e-5
76 | QVVSDIDYVPLKSATA I6Q (QVVSDQDYVPLKSATA) | 0 | –
77 | QVVSDIDYVPLKSATA A16P (QVVSDIDYVPLKSATP) | 0.0003513 | –
78 | VSDIDYVPLKSATA(averaged) Y6E (VSDIDEVPLKSATA) | – | 0
79 | VSDIDYVPLKSATA(averaged) S2Q (VQDIDYVPLKSATA) | – | 0.003282
80 | VSDIDYVPLKSATA(averaged) A12G (VSDIDYVPLKSGTA) | – | 0
81 | VSDIDYVPLKSATA(averaged) K10W (VSDIDYVPLWSATA) | – | 0.0001065
82 | VSDIDYVPLKSATAIT V1Q (QSDIDYVPLKSATAIT) | 0 | –
83 | VSDIDYVPLKSATAIT D3H (VSHIDYVPLKSATAIT) | 0 | –
84 | VSDIDYVPLKSATA(averaged) P8W (VSDIDYVWLKSATA) | – | 0.06329
85 | VSDIDYVPLKSATA(averaged) A14T (VSDIDYVPLKSATT) | – | 0.3301
86 | QVVSDIDYVPLKSATA K12N (QVVSDIDYVPLNSATA) | 0.01307 | –
87 | VSDIDYVPLKSATAIT V1V | 0.0001148 | –
88 | QVVSDIDYVPLKSATA A14V (QVVSDIDYVPLKSVTA) | 0 | –
89 | VSDIDYVPLKSATA(averaged) P8F (VSDIDYVFLKSATA) | – | 0
90 | QVVSDIDYVPLKSATA A16E (QVVSDIDYVPLKSATE) | 0 | –
91 | VSDIDYVPLKSATAIT P8N (VSDIDYVNLKSATAIT) | 0 | –
